We go through one compound from paper PMC8508734 (International Journal of Molecular Sciences, 2021).

Chains of the proteins cited; added tags and fusions are not shown. Lines headed by an entry give the natural chain unless they say otherwise; changes in a name come on top.
UniProt Q9QYN8: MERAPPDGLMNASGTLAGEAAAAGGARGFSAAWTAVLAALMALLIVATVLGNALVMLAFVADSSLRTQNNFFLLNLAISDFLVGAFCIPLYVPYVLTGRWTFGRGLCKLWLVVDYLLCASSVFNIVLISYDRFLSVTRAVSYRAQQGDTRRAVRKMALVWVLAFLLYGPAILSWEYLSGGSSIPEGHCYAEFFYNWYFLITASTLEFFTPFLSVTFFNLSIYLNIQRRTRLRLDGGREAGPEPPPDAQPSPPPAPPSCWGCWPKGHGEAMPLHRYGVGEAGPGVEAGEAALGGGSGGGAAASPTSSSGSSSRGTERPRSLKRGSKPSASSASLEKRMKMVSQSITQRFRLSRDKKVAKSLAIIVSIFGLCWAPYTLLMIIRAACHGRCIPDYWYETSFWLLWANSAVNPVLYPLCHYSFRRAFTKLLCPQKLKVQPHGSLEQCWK

The assay concerns the target histamine H3 receptor (H3R) (Rattus norvegicus, UniProt Q9QYN8). Kind of assay: cell-based. On the set-up: gene Hrh3.

In general, EC50 refers to the concentration at which the effect is half-maximal. A high value points to weaker potency.

`N=C(N)SCCc1cnc[nH]1` [imetit] showed an EC50 of 4 ± 2 nM.
